Protein sequences, listed by entry. Tags and fused reporters are not part of them. Residues count along the entry.
UniProt P33072, 170-418 limits assumed: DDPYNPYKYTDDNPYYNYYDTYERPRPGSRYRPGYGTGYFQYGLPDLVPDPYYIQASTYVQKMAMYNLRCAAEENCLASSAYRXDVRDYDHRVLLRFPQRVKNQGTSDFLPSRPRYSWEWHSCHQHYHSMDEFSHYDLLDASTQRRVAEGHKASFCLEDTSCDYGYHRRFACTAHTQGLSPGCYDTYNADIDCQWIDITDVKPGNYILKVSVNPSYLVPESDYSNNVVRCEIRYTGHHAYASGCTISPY

In patent publication US20080293936A1, “Novel inhibitors of lysyl oxidase” (priority 2007, published 2008):

Legend:
Lysyl oxidase [1] = molecular target: T1, Lysyl oxidase (Bos taurus, UniProt P33072); assay: Lysyl oxidase inhibition, peroxidase-coupled fluorometric activity test
Method: Lysyl oxidase was isolated form bovine aorta, modified according to Williams und Kagan (1985) Assessment of lysyl oxidase variants by urea gel electrophoresis: evidence against disulfide isomers as bases of the enzyme heterogeneity. Anal. Biochem. 149: 430-7, and Kagan und Sullivan (1982) Lysyl oxidase: preparation and role in elastin biosynthesis. Methods Enzymol. 82(Pt A): 637-50. The enzyme preparation was carried out at 4° C. with fresh material from bovine aorta. The aorta was homogenized for 90 seconds in 2.5. ml buffer per gram of tissue. The buffer consisted of 16 mM potassium phosphate, 150 mM sodium chloride and 1 mM phenylmethylsulfonylfluoride. The homogenized mixture was centrifuged for 20 minutes at 11,000 g. […]
To determine the specific enzyme activity of lysyl oxidase a coupled activity test with fluorescence was applied (modified according to nach Trackman P C, Zoski C G, Kagan, H M (1981) Development of a peroxidase-coupled fluorometric assay for lysyl oxidase. Anal. Biochem. 113: 336-342). […]
The fluorescence of the reaction solution was determined at an excitation wavelength of 350 nm and measurement of emission was carried out at 425 nm at 37° C. Before the addition of the sample solution fluorescence was determined by calibration with 1 nmol hydrogen peroxide. This increase in fluorescence was equivalent to a turnover of 1 nmol 1,5-diaminopentane. […]

Lysyl oxidase [2] = molecular target: T1, Lysyl oxidase; assay: Kinetic investigation: dialysis of lysyl oxidase-inhibitor complexes against inhibitor-free buffer, recovery of activity; settings: for vt/vmax: preincubation at 10-fold IC50
Method: Lysyl oxidasee and lysyl oxidase inhibitors of the structural formulas (XX)-(XXIII) (Table 1) were coincubated at concentrations that were 10-fold over the respective IC50 of the inhibitor and were subsequently dialyzed against 0.5 M borax buffer at pH 8.2 without added inhibitor. The dialysis buffer was exchanged twice during the first hour and subsequently three times in hourly intervals. The volume against which was dialyzed was at least 100-fold greater than the volume of the lysyl oxidase preparation in the dialysis tube. After 2, 4, 5 und 19 h lysyl oxidase activity was measured as described in Example 2. In a parallel assay a dialysis with a non-inhibited lysyl oxidase preparation was carried out to determine the effect of spontaneous activity loss during dialysis and to obtain a reference value (100% activity, positive control). From the obtained change in time-dependent activity it was possible to calculate the dissociation velocity constants of the inhibitor compounds, the half life times of the enzyme-inhibitor complexes and the association velocity constants. In the following section it is derived how these kinetic parameters can be determined form the measurement of the reaction velocity with the inhibited fraction at the timepoint t (vt) and the reaction velocity with the positive control (vmax).
Derivations: During dialysis against buffer without inhibitor the complex (EI) consisting of enzyme (E) and inhibitor (I) decays with a dissociation constant of first k−1
The velocity of decay is proportional to the concentration of the enzyme-inhibitor complex:
Rearranging this equation and definite Integration from the initial enzyme-inhibitor-complex concentration ([EI]0) to the concentration of the complex at the measurement time point t ([EI]t) on the left side and from t=0 to t on the right side yields:
The ratio of the reaction velocity when the inhibited enzyme preparation is used at a measurement time point t (vt) to the reaction velocity when the positive control is used (vmax) is dependent on the proportion of the total enzyme concentration in the assay ([E]0) that is present as enzyme-inhibitor-complex concentration at a time point t ([EI]t). The following equation describes this relationship: […]
For reasons of simplification a variable Rt can be defined
Solving the above differential equation and substituting Rt into the equation one obtains: […]
By linear regression with ln Rt and t, k−1 can be determined as the coefficient of slope.
Using k−1 one can calculate the half-life time of the enzyme-inhibitor-complexes (t1/2) as:
To determine the kinetic association constant the equilibrium is considered:
At the particular inhibitor concentration (IC50) at which the reaction velocity is 50% of the reaction velocity of the positive control, the free enzyme concentration ([E]) is approximately equal to the concentration of the enzyme inhibitor complex ([EI])
By substitution into the equilibrium equation and by simple rearrangement one obtains a term for the association constant which is dependent on the dissociation constant determined above and on the IC50:
Results Tables 2a to 2d show the results from reaction velocity measurements at the time points after 0, 120, 270 and 1140 min of dialysis against an inhibitor-free buffer. The relative reaction velocities and the derived constants are provided. In addition, the results of a regression analysis according to Example 3 are provided, from which the kinetic constants from table 3 can be calculated. Results are shown for compounds (XX)-[…].

[3] = regression analysis below Tables 2a-2d

IC50 (Lysyl oxidase [1]; Table 1, lysyl oxidase from bovine aorta, 37° C., pH 8.2): 755 nM
IC50 (Lysyl oxidase [1]; Table 3): 755 nM
Rt (Lysyl oxidase [2]; 0 min of dialysis): 0.74
ln Rt (Lysyl oxidase [2]; 0 min of dialysis): −0.3011
vt/vmax (Lysyl oxidase [2]; 0 min of dialysis): 0.26
Rt (Lysyl oxidase [2]; 120 min of dialysis): 0.73
ln Rt (Lysyl oxidase [2]; 120 min of dialysis): −0.3147
vt/vmax (Lysyl oxidase [2]; 120 min of dialysis): 0.27
Rt (Lysyl oxidase [2]; 270 min of dialysis): 0.54
ln Rt (Lysyl oxidase [2]; 270 min of dialysis): −0.6162
vt/vmax (Lysyl oxidase [2]; 270 min of dialysis): 0.46
Rt (Lysyl oxidase [2]; 1,140 min of dialysis): 0
vt/vmax (Lysyl oxidase [2]; 1,140 min of dialysis): 1
k−1 (Lysyl oxidase [2]; Table 3, calculated from slopes): 0.072 h⁻¹
k1 (association velocity constant) (Lysyl oxidase [2]; Table 3, from k−1 and IC50): 26.4 M⁻¹ s⁻¹
k−1 (dissociation velocity constant) (Lysyl oxidase [2]; [3]): 0.07209 h⁻¹
slope (linear regression of ln Rt against t) (Lysyl oxidase [2]; [3]): −1.202×10^−3 1/min
SMILES: O=c1c(Oc2ccc(CCCO)cc2)c(-n2ccnc2)cnn1-c1ccc(Cl)cc1
